Test: Analytical HPLC of Pluronic F-127 formulated substrates reconstituted in water (Examples 34-36)
Type: physicochemical
Details: Example 34; JRW-0238, 100 μM
Method: 2.5 mgs of Pluronic® F-127 (Sigma Aldrich) were massed out into […] snap-top Eppendorf tubes. The polymer was heated to 70° C. in a water bath until melted, becoming a clear solution. A 174 mM stock solution of the coelenterazine analog, JRW-0238, was prepared in EtOH. 5 μL of this stock was added to the melted polymer and pipetted to mix. Two separate conditions were prepared: Condition 1—After the addition of the substrate, the substrate/polymer solution was dried under high vacuum for 30 minutes. Condition 2—After addition of substrate, the substrate/polymer solution was further diluted with 45 μL of water, frozen, and lyophilized overnight.
Samples from both conditions 1 and 2 were reconstituted in water, diluted to 100 μM, and analyzed for chemical integrity via analytical HPLC (FIG. 54).
This formulation was also prepared for the coelenterazine analog, furimazine. 2.5 mgs of Pluronic® F-127(Sigma Aldrich) were massed out into 1.5 mL, snap-top Eppendorf tubes. The polymer was heated to 70° C. in a water bath until melted. A 10 mM stock solution of furimazine was prepared in EtOH. 5 μL of this stock was then added to the melted polymer and pipetted to mix. […]
The samples in both condition 1 and 2 were reconstituted in water, diluted to 100 μM, and analyzed for substrate integrity via analytical HPLC (FIG. 55). […]

O=c1c(Cc2ccco2)nc2c(Cc3ccccc3)[nH]c(-c3cccc(O)c3)cn1-2 [JRW-0238, 8-benzyl-2-(furan-2-ylmethyl)-6-(3-hydroxyphenyl)imidazo[1,2-a]pyrazin-3(7H)-one]
Area Percent, peak at retention time 4.357-4.366 min (main peak): 98.429%

Source: patent US11534504B2, “Compositions and methods for stabilizing coelenterazine and analogs and derivatives thereof” (Promega Corporation, priority 2018, dated 2022)
